Read-outs that look alike come from different tables or passages of the source.
Experiments:
[1] = tested on: Bacteriophage MS2; test: Phage MS2 infectivity inactivation kinetics; details: pH 7.5, 0.15 M NaCl, 20° C.
[2] = target: T1, human serum albumin (Homo sapiens, UniProt P02768); test: Protein modification, SDS-PAGE analysis of albumin; details: 0.9% human serum albumin
[3] = Potentiometric titration, pKa of protonizable groups; details: 0.15 M NaCl aqueous solution, 25° C.
[4] = target: T1, human serum albumin; test: Protein modification, isoelectric focusing analysis of albumin; details: for IEF pattern of albumin: 0.9% human serum albumin
[5] = tested on: MS2 phage; details: pH 7.0, 25° C.
[6] = extent of inactivation 11 log10, monomer 25 mM or trimer 0.4 mM
[7] = extent of inactivation 32 log10, monomer 25 mM
[8] = extent of inactivation 41 log10, monomer 25 mM
[9] = extent of inactivation 83 log10, monomer 25 mM
[10] = Buffer B: 0.075 M NaCl, 0.2 M MOPS
[11] = Buffer D: 0.075 M NaCl, 0.2 M phosphate

Chains of the proteins cited; added tags and fusions are not shown. Residues count along the entry.
UniProt P02768, 25-609 limits assumed: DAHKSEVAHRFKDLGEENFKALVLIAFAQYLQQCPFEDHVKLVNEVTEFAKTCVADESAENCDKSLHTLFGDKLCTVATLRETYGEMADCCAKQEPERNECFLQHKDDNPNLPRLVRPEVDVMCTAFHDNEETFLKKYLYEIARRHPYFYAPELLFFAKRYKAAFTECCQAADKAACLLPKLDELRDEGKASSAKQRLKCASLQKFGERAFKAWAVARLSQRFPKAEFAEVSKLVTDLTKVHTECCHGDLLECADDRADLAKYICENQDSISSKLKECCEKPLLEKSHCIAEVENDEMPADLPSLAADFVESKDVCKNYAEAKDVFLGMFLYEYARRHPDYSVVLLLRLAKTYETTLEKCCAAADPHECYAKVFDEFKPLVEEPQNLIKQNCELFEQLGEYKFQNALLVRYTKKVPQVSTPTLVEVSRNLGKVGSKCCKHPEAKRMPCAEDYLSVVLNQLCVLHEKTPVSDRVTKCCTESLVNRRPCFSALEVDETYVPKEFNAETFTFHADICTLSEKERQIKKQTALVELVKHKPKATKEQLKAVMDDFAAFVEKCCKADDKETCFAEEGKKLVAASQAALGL

| Molecule | Extent of aziridino group protonation (B) (pH 6.5) | Total average positive charge (A) (pH 6.5) | Extent of aziridino group protonation (B) (pH 7.5) | Total average positive charge (A) (pH 7.5) | Extent of aziridino group protonation (B) (pH 8.5) | Total average positive charge (A) (pH 8.5) | Rate constant of phage MS2 infectivity inactivation, reactive form of the agent (k1, in parenthesis) [1] | Rate constant of phage MS2 infectivity inactivation (k) ([1]; total concentration of agent) [M⁻¹ s⁻¹] | SDS-PAGE (reduced and non-reduced) of albumin [2, 6] | SDS-PAGE (reduced and non-reduced) of albumin [2, 7] | SDS-PAGE (reduced and non-reduced) of albumin [2, 8] | SDS-PAGE (reduced and non-reduced) of albumin [2, 9] | pKa aziridino [3] | IEF pattern of albumin [4, 6] | IEF pattern of albumin [4, 7] | IEF pattern of albumin [4, 8] | IEF pattern of albumin [4, 9] | Effect on albumin charge by isoelectric focusing ([4]; same degree of inactivation, up to 81 orders of magnitude) | Rate constant [5, 10] [mM ‘hr’] | Rate constant [5, 11] [mM ‘hr’] |
| --- | --- | --- | --- | --- | --- | --- | --- | --- | --- | --- | --- | --- | --- | --- | --- | --- | --- | --- | --- | --- |
| C1CN1 | 0.98 | 0.96 | 0.80 | 0.80 | 0.28 | 0.28 | (1.25) M^−1 · min^−1 | 0.025 ± 0.0012 | No change* | No change* | No change* | No change* | 8.1 | No change* | No change* | No change* | No change* | significant increase in charge heterogeneity | – | – |
| β-bromoethyl-triethylenetetramine tetrabromohydrate | – | – | – | – | – | – | – | – | – | – | – | – | – | – | – | – | – | – | 6.3 ± 0.9 | 0.29 ± 0.04 |
| β-bromoethyl-diethylenetriamine tribromohydrate | – | – | – | – | – | – | – | – | – | – | – | – | – | – | – | – | – | – | 3.0 ± 0.4 | 0.17 ± 0.02 |

Source: US20040048235A1, “Methods and compositions for the selective modification of nucleic acids” (published 2004)
